Legend:
Type in all cases: in vivo
[1] = system: SOD1-G93A transgenic mice; experiment: Survival time of SOD1-G93A transgenic mice with ALS; settings: Riluzole 0.02 g/kg gavage
[2] = system: SOD1-G93A transgenic mice; experiment: Time to onset of paralysis in SOD1-G93A transgenic mice; settings: Riluzole 0.02 g/kg gavage; no division by gender
Experimental: After ALS model mice were determined to have significant changes compared to negative control mice in behavioral test by combining literature as well as prior experience, they were randomly grouped according to their body weight. The drug administration was started and mice were observed. The groups were specifically divided into: model control group (M), positive drug control group (Riluzole, 0.02 g/kg, R), and low-dose (073-L), medium-dose (073-M), and high-dose groups (073-H) of the pharmaceutical composition of the present invention, with 30 animals in each group.
The corresponding drug solution was administered via gavage using a syringe at a volume of 10 ml/kg. The model group and negative control group were administered with an equivalent volume of sterile injectable water. […]
Neurological function was evaluated during the dosing phase using the Snow scoring method twice weekly. […]
The time from administration to the first occurrence of a neurological function score ≥3.5 was defined as the time to onset of paralysis. The mean time to onset of paralysis of animals was calculated. […] The paralysis delay rate for each drug group was also calculated according to the following formula: […]
The time from administration to the first occurrence of a neurological function score ≥3.5 was defined as the time to onset of paralysis. The mean time to onset of paralysis of animals was calculated. […]

[3] = system: SOD1-G93A transgenic mice; experiment: Serum malondialdehyde (MDA) in SOD1-G93A transgenic mice; settings: Riluzole 0.02 g/kg gavage, 30 days

Molecule Nc1nc2ccc(OC(F)(F)F)cc2s1 [Riluzole] has a Survival time ([1]; female) of 142.3 ± 6.6 days, a Survival time ([1]; male) of 140.4 ± 13.0 days and a Survival time ([1]; no division by gender) of 141.4 ± 9.9 days. The “Time to onset of paralysis” value [2] was 134.8 ± 14.2 days and the “Serum malondialdehyde content, MDA” value [3] was 31.0 ± 4.8 µM.
